## Binding of CDR-mutated scFvs to a peptide of the spike HR2 region

Data: MIT Lincoln Laboratory AlphaSeq set, Engelhart et al. 2022, doi:10.1038/s41597-022-01779-4, as distributed in FLAb.

Binding partner: SARS-CoV-2 spike HR2 peptide, sequence PDVDLGDISGINAS.

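The starting antibody came from a phage panning campaign against this peptide. Variants in AAYL52 differ from the parent at up to three CDR positions; double and triple changes were sampled at random. Affinity was read by AlphaSeq, a pooled yeast mating assay with surface-displayed partners. Pairs that bind mate more often; barcode pairs of the diploids are counted by sequencing. Read counts were normalised to the haploid input and turned into Kd by a linear fit to BCL2-family pairs of known affinity, for each replicate. There are three technical replicates.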

The variants keep the heavy chain, the linker and the frameworks of Ab-95 (scFv order VH, a 15-residue (Gly4Ser)3 linker, VL).
VH: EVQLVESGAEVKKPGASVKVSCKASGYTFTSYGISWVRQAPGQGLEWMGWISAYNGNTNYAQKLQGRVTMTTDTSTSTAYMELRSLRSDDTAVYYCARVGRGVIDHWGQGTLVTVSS
VL: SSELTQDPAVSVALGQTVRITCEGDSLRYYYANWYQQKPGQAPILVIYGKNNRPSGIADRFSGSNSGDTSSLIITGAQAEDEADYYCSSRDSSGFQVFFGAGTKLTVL

Positions count from residue 1 of the parent VL; D25Y puts Y in place of D.
This list gathers variants with a substitution at N51 (VL, numbered from residue 1).
The read-out is the apparent dissociation constant on a log10 scale (nM): the lower, the stronger.
A mean of the replicates is given; it leaves out those without a signal.
An entry "nd" has no value in the source: the pair was not observed among the diploids in any replicate. This suggests poor binding but is not conclusive.
Three control strains display no target. For library AAYL52, 28% of the pairings with them gave a signal, with a median of 3.91 and one signal in twenty below 2.90, so weak values seen in few replicates may be background.

With D25Y N51Q S88C the result was nd (0 of 3 replicates).
With S26V N51G D91L the result was 4.42 (2 of 3 replicates).
With N33F N51Y V97K the result was nd (0 of 3 replicates).
With D25K N51M F95R the result was 3.45 (3 of 3 replicates).
With N51M S55L the result was 3.49 (3 of 3 replicates).
With N51K N52T the result was 3.18 (3 of 3 replicates).
With L27G A32T N51Y the result was 3.49 (2 of 3 replicates).
With N51Y D91G F95T the result was 3.67 (3 of 3 replicates).
With Y30I N51H R53M the result was 4.77 (1 of 3 replicates).
With N51K R90H the result was 3.70 (2 of 3 replicates).
With N51F D91C S93M the result was 3.88 (1 of 3 replicates).
With Y31F N51E S92K the result was 1.67 (3 of 3 replicates).
With S26W N51A S89K the result was 4.63 (1 of 3 replicates).
With N51C P54V S88C the result was 3.85 (2 of 3 replicates).
With Y29I N51M D91P the result was 2.69 (3 of 3 replicates).
With N51Q P54A S89P the result was 2.70 (3 of 3 replicates).
With Y30W N51T P54G the result was 3.69 (2 of 3 replicates).
With N51V G94A F95N the result was 4.91 (1 of 3 replicates).
With N51P S92V Q96G the result was 4.25 (1 of 3 replicates).
With A32E N51W the result was 3.61 (2 of 3 replicates).
With D25Y N51L F95D the result was 5.41 (1 of 3 replicates).
With N51G R90I Q96C the result was 2.79 (2 of 3 replicates).
With N51K S88K G94I the result was nd (0 of 3 replicates).
With G24H A32P N51R the result was 3.50 (2 of 3 replicates).
With A32F N51Q F98H the result was 3.85 (2 of 3 replicates).
With N33P N51T R90Y the result was nd (0 of 3 replicates).
With Y30W N51M Q96L the result was 4.46 (3 of 3 replicates).
With N51Y S92N S93R the result was nd (0 of 3 replicates).
With A32W N51T F95Y the result was 3.44 (1 of 3 replicates).
With R28I N51R S92W the result was 4.19 (2 of 3 replicates).
With Y30N N51V P54Y the result was 2.60 (3 of 3 replicates).
With Y29L N51H S89H the result was nd (0 of 3 replicates).
With N51A N52F P54Q the result was 3.72 (3 of 3 replicates).
With N51C S93L the result was 5.25 (1 of 3 replicates).
With A32S K50A N51S the result was 2.38 (3 of 3 replicates).
With G24T N51I R90Y the result was 5.36 (1 of 3 replicates).
With N51G S88Q R90Y the result was nd (0 of 3 replicates).
With E23R N51V D91W the result was 3.10 (3 of 3 replicates).

For reference, the parent read 2.31 as the reference entry and 2.25 as a member of this library.